# Laboratory results from ChEMBL document CHEMBL1921670, “Discovery and optimization of indole and 7-azaindoles as Rho kinase (ROCK) inhibitors (part-II)” (Bioorg Med Chem Lett, 2011).
# Experiment: Selectivity ratio of IC50 for PKA to IC50 for ROCK2
structure (smiles),measurement,value
COc1cccc(CNC(=O)c2[nH]c3cc(-c4cn[nH]c4)ccc3c2CN2CCOCC2)c1,Ratio IC50,6000
